Target: T1, PTP1B (Homo sapiens, UniProt P18031)
T1 construct: purchased Sigma Aldrich, Modderfontein, South Africa
T1 sequence (P18031 1-435): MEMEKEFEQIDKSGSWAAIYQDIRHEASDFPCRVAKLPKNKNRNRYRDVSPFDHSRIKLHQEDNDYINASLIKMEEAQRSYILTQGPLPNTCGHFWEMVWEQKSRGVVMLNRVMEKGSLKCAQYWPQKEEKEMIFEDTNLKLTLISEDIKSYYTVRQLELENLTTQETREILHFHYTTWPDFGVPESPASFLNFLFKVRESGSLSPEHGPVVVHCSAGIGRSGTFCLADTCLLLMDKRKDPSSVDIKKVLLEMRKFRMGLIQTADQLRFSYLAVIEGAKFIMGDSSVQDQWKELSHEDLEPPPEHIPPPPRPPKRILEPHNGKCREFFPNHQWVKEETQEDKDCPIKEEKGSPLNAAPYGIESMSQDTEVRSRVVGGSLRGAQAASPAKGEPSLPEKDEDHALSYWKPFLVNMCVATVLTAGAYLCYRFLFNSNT
Assay: PTP1B inhibition assay (pNPP substrate)
Assay type: biochemical
Conditions: Hepes buffer pH 7.0, triplicate
Description: Activity of PTPase (Sigma Aldrich, Modderfontein, South Africa) was evaluated using p-nitrophenylphosphate (PNPP) as the substrate. […] The reaction was stopped by the addition of 30 μL of 3 M NaOH and absorbance was determined at wavelength of 410 nm. Control tubes without the enzyme were ran in parallel to nullify the nonenzymatic reaction and for calculating the concentration of p-nitrophenolate ions produced in the reaction mixture.

In the case of “sodium vanadate [Na2VO4, reference compound]”, the IC50 is reported as 38.42 ± 0.28 µM and the IC50 (listed as sodium vanadate) is reported as 38.4 µM.
